Data on 23 molecules can be found in patent EP4563146A1 (IRBM S.P.A., priority 2023, dated 2025).

Assay [1] has as its target DEN2V NS2B-G4SG4-NS3 serine protease (Dengue virus type 2, UniProt Q91H74). The assay is described as follows: DEN2V protease inhibition assay.
Assay [2] has as its target DEN1V NS2B-G4SG4NS3 serine protease (Dengue virus type 1, UniProt P17763). The assay is described as follows: DEN1V protease inhibition assay.
Assay [3] has as its target DEN3V NS2B-G4SG4NS3 serine protease (Dengue virus type 3, UniProt Q6YMS4). The assay can be described thus: DEN3V protease inhibition assay.
In assay [4] the target is DEN4V NS2B-G4SG4NS3 serine protease (Dengue virus type 4, UniProt P09866). The assay can be described thus: DEN4V protease inhibition assay.
Setting [5] is: read-out: Dengue 2 - NS3 protease.
The mark [6] stands for this setting: read-out: Dengue 1 - NS3 protease.

pIC50: −log10 of the molar value. Where two headings read alike, the source gives them in different places. Bounds are passed on as bounds.

Consider `COc1ncc(-c2ccc(C[n+]3cc([N-]C(=O)Nc4cc(NC(=O)Cc5ccccc5)cc(C(F)(F)F)c4)on3)cc2)c(C)n1` [Example 1, (3-(4-(2-Methoxy-4-methylpyrimidin-5-yl)benzyl)-1,2,3-oxadiazol-3-ium-5-yl)((3-(2-phenylacetamido)-5-(trifluoromethyl)phenyl)carbamoyl)amide], for which the pIC50 was over 7.00 in assay [1], 4.70 to 6.00 in assay [2], over 7.00 in assay [3] and over 7.00 in assay [4].

For `COc1ncc(-c2ccc(C[n+]3cc([N-]C(=O)Nc4cc(N)cc(C(F)(F)F)c4)on3)cc2)c(C)n1` [Example 3, ((3-Amino-5-(trifluoromethyl)phenyl)carbamoyl)(3-(4-(2-methoxy-4-methylpyrimidin-5-yl)benzyl)-1,2,3-oxadiazol-3-ium-5-yl)amide], the pIC50 in assay [1] was 4.70 to 6.00; in assay [2], under 4.70; in assay [3] it was 4.70 to 6.00; in assay [4], 4.70 to 6.00.

With `C[n+]1cc([N-]C(=O)Nc2cc(NC(=O)Cc3ccccc3)cc(C(F)(F)F)c2)on1` [Example 4, (3-Methyl-1,2,3-oxadiazol-3-ium-5-yl)((3-(2-phenylacetamido)-5-(trifluoromethyl)phenyl)carbamoyl)amide], the pIC50 was 6.00 to 7.00 in assay [1], under 4.70 in assay [2], 4.70 to 6.00 in assay [3] and 4.70 to 6.00 in assay [4].

Take `NCc1ccccc1-c1ccc(C[n+]2cc([N-]C(=O)Nc3cc(NC(=O)Cc4ccccc4)cc(C(F)(F)F)c3)on2)nc1` [Example 5, (3-((5-(2-(Aminomethyl)phenyl)pyridin-2-yl)methyl)-1,2,3-oxadiazol-3-ium-5-yl)((3-(2-phenylacetamido)-5-(trifluoromethyl)phenyl)carbamoyl)amide]: the figures for the pIC50 in assay [1] and in assay [2] were over 7.00 and 4.70 to 6.00, respectively.

As to `O=C(Cc1ccccc1)Nc1cc(NC(=O)[N-]c2c[n+](Cc3ccccn3)no2)cc(C(F)(F)F)c1` [Example 7, ((3-(2-Phenylacetamido)-5-(trifluoromethyl)phenyl)carbamoyl)(3-(pyridin-2-ylmethyl)-1,2,3-oxadiazol-3-ium-5-yl)amide], the pIC50 in assay [1] is over 7.00; in assay [2] it was 4.70 to 6.00; in assay [3] it was 6.00 to 7.00; in assay [4], 6.00 to 7.00.

Turning to `COc1ncc(-c2ccc(C[n+]3cc([N-]C(=O)Nc4cc(NC(=O)CC5CCCCC5)cc(C(F)(F)F)c4)on3)cc2)c(C)n1` [Example 8], the pIC50 in assay [1] (setting [5]) is over 7.00; in assay [2] (setting [6]), under 4.70; in assay [3] (read-out: Dengue 3 - NS3 protease) it was 6.00 to 7.00; in assay [4] (read-out: Dengue 4 - NS3 protease), 6.00 to 7.00.

In the case of `COc1ncc(-c2ccc(C[n+]3cc([N-]C(=O)Nc4cc(NC(=O)CCc5ccccc5)cc(C(F)(F)F)c4)on3)cc2)c(C)n1` [Example 9, (3-(4-(2-Methoxy-4-methylpyrimidin-5-yl)benzyl)-1,2,3-oxadiazol-3-ium-5-yl)((3-(3-phenylpropanamido)-5-(trifluoromethyl)phenyl)carbamoyl)amide], the pIC50 was over 7.00 in assay [1], 6.00 to 7.00 in assay [2], 6.00 to 7.00 in assay [3] and 6.00 to 7.00 in assay [4].

On to `COc1ncc(-c2ccc(C[n+]3cc([N-]C(=O)Nc4cc(NS(=O)(=O)Cc5ccccc5)cc(C(F)(F)F)c4)on3)cc2)c(C)n1` [Example 10, (3-(4-(2-Methoxy-4-methylpyrimidin-5-yl)benzyl)-1,2,3-oxadiazol-3-ium-5-yl)((3-((phenylmethyl)sulfonamido)-5-(trifluoromethyl)phenyl)carbamoyl)amide], for which the pIC50 in assay [1] was over 7.00; in assay [3] it was 6.00 to 7.00; in assay [4], 6.00 to 7.00.

As for `CC(C(=O)Nc1cc(NC(=O)[N-]c2c[n+](Cc3ccccn3)no2)cc(C(F)(F)F)c1)c1ccccc1` (centres unmarked) [Example 32], the pIC50 is over 7.00 in assay [1] (setting [5]) and 4.70 to 6.00 in assay [2] (setting [6]).

Consider `O=C(Cc1ccccc1)Nc1cc(NC(=O)[N-]c2c[n+](CC3CCCNC3)no2)cc(C(F)(F)F)c1` (centres unmarked) [Example 110, ((3-(2-Phenylacetamido)-5-(trifluoromethyl)phenyl)carbamoyl)(3-(piperidin-3-ylmethyl)-1,2,3-oxadiazol-3-ium-5-yl)amide], for which the pIC50 is over 7.00 in assay [1] and 4.70 to 6.00 in assay [2].

In the case of `O=C([N-]c1c[n+](Cc2ccccn2)no1)Nc1cc(N2CC(c3ccccc3)CC2=O)cc(C(F)(F)F)c1` (centres unmarked) [Example 122, ((3-(2-Oxo-4-phenylpyrrolidin-1-yl)-5-(trifluoromethyl)phenyl)carbamoyl)(3-(pyridin-2-ylmethyl)-1,2,3-oxadiazol-3-ium-5-yl)amide], the pIC50 in assay [1] is 6.00 to 7.00; in assay [3] it was 4.70 to 6.00.

In assay [1], `COC(=O)c1ccc(C[n+]2cc([N-]C(=O)Nc3cc(NC(=O)Cc4ccccc4)cc(C4CC4)c3)on2)nc1` [Example 128, ((3-Cyclopropyl-5-(2-phenylacetamido)phenyl)-carbamoyl)(3-((5-(methoxycarbonyl)pyridin-2-yl)methyl)-1,2,3-oxadiazol-3-ium-5-yl)amide] showed a pIC50 of over 7.00.

In assay [1], `N[C@H]1CC[C@@H](C[n+]2cc([N-]C(=O)Nc3cc(N4CCC(c5ccccc5)C4=O)cc(C(F)(F)F)c3)on2)CC1` (stereo partly drawn) [Example 131, (3-(((1S,4S)-4-Aminocyclohexyl)methyl)-1,2,3-oxadiazol-3-ium-5-yl)((3-(2-oxo-3-phenylpyrrolidin-1-yl)-5-(trifluoromethyl)-phenyl)carbamoyl)amide] showed a pIC50 of over 7.00.

Turning to `N[C@H]1CC[C@H](C[n+]2cc([N-]C(=O)Nc3cc(N4CCC(c5ccccc5)C4=O)cc(C(F)(F)F)c3)on2)CC1` (stereo partly drawn) [Example 132, (3-(((1R,4R)-4-Aminocyclohexyl)methyl)-1,2,3-oxadiazol-3-ium-5-yl)((3-(2-oxo-3-phenylpyrrolidin-1-yl)-5-(trifluoromethyl)-phenyl)carbamoyl)amide], the pIC50 in assay [1] is over 7.00.

The molecule `NC[C@H]1CC[C@@H](C[n+]2cc([N-]C(=O)Nc3cc(N4CCC(c5ccccc5)C4=O)cc(C(F)(F)F)c3)on2)CC1` (stereo partly drawn) [Example 133, (3-(((1S,4S)-4-(Aminomethyl)cyclohexyl)-methyl)-1,2,3-oxadiazol-3-ium-5-yl)((3-(2-oxo-3-phenylpyrrolidin-1-yl)-5-(trifluoromethyl)-phenyl)carbamoyl)amide] had a pIC50 in assay [1] of over 7.00.

In turn, `O=C(Cc1ccccc1)Nc1cc(NC(=O)[N-]c2c[n+](CC3CC(NCc4ccc(O)cn4)C3)no2)cc(C(F)(F)F)c1` (centres unmarked) [Example 134, (3-((3-(((5-Hydroxypyridin-2-yl)methyl)amino)-cyclobutyl)methyl)-1,2,3-oxadiazol-3-ium-5-yl)((3-(2-phenylacetamido)-5-(trifluoromethyl)-phenyl)carbamoyl)amide] had a pIC50 in assay [1] of over 7.00.

In assay [1], `O=C([N-]c1c[n+](C[C@H]2CC[C@@H](NCC(F)(F)F)CC2)no1)Nc1cc(N2CCC(c3ccccc3)C2=O)cc(C(F)(F)F)c1` (some centres unmarked) [Example 136, ((3-(2-Oxo-3-phenylpyrrolidin-1-yl)-5-(trifluoromethyl)phenyl)carbamoyl)(3-(((1s,4s)-4-((2,2,2-trifluoroethyl)amino)cyclohexyl)methyl)-1,2,3-oxadiazol-3-ium-5-yl)amide] gave a pIC50 of over 7.00.

With `O=C([N-]c1c[n+](C[C@H]2CC[C@H](NCC(F)(F)F)CC2)no1)Nc1cc(N2CCC(c3ccccc3)C2=O)cc(C(F)(F)F)c1` (stereo partly drawn) [Example 137, ((3-(2-Oxo-3-phenylpyrrolidin-1-yl)-5-(trifluoromethyl)phenyl)carbamoyl)(3-(((1R,4R)-4-((2,2,2-trifluoroethyl)amino)-cyclohexyl)methyl)-1,2,3-oxadiazol-3-ium-5-yl)amide], the pIC50 in assay [1] was over 7.00.

Take `CCOC(=O)CN1CCC(C[n+]2cc([N-]C(=O)Nc3cc(NC(=O)Cc4ccccc4)cc(C(F)(F)F)c3)on2)CC1` [Example 140, (3-((1-(2-Ethoxy-2-oxoethyl)piperidin-4-yl)methyl)-1,2,3-oxadiazol-3-ium-5-yl)((3-(2-phenylacetamido)-5-(trifluoromethyl)phenyl)-carbamoyl)amide]: the pIC50 in assay [1] is over 7.00.

On to `O=C(Cc1ccccc1)Nc1cc(NC(=O)[N-]c2c[n+](CC3CCN(CCO)CC3)no2)cc(C(F)(F)F)c1` [Example 141, (3-((1-(2-Hydroxyethyl)piperidin-4-yl)methyl)-1,2,3-oxadiazol-3-ium-5-yl)((3-(2-phenylacetamido)-5-(trifluoromethyl)phenyl)-carbamoyl)amide], for which, in assay [1], the pIC50 is over 7.00.

`O=C(Cc1ccccc1)Nc1cc(NC(=O)[N-]c2c[n+](CC3CCCCN3CC(F)(F)F)no2)cc(C(F)(F)F)c1` (centres unmarked) [Example 142, ((3-(2-Phenylacetamido)-5-(trifluoromethyl)phenyl)carbamoyl)(3-((1-(2,2,2-trifluoroethyl)piperidin-2-yl)methyl)-1,2,3-oxadiazol-3-ium-5-yl)amide] gave a pIC50 in assay [1] of 6.00 to 7.00.

`O=C([N-]c1c[n+](C[C@H]2CC[C@H](NC(=O)C(F)(F)F)CC2)no1)Nc1cc(N2CC[C@H](c3ccccc3)C2=O)cc(C(F)(F)F)c1` [Example 145, ((3-((R)-2-Oxo-3-phenylpyrrolidin-1-yl)-5-(trifluoromethyl)phenyl)carbamoyl)(3-(((1R,4R)-4-(2,2,2-trifluoroacetamido)cyclohexyl)methyl)-1,2,3-oxadiazol-3-ium-5-yl)amide] had a pIC50 in assay [1] of over 7.00.

`CN(CC(F)(F)F)[C@H]1CC[C@H](C[n+]2cc([N-]C(=O)Nc3cc(N4CC[C@H](c5ccccc5)C4=O)cc(C(F)(F)F)c3)on2)CC1` [Example 146, (3-(((1R,4R)-4-(Methyl(2,2,2-trifluoroethyl)-amino)cyclohexyl)methyl)-1,2,3-oxadiazol-3-ium-5-yl)((3-((R)-2-oxo-3-phenylpyrrolidin-1-yl)-5-(trifluoromethyl)phenyl)carbamoyl)amide] had a pIC50 in assay [1] of over 7.00.
